The numbers were not newly measured in article PMC7073000, which cites them from elsewhere.

The target in one data set is Akt PH (Homo sapiens) (UniProt P31749).
In data set [1] the target is Grb7 CaM-binding peptide CaM-binding site peptide (Homo sapiens) (UniProt Q14451).

On to Calmodulin (from UniProt P0DP23), for which the figures for the Kd (in the data set with Akt PH (Homo sapiens); in data set [1]) were 0.1 µM and 0.0025 µM, respectively.
